System: MMP13, uPA, KLK, MMP
Assay: Substrate cleavage assay of protease nanosensors (FIG. 12A)
Format: biochemical
Experimental: Xenograft model 22Rv1 (a non-metastatic tumor, referred to as Tnon-met) is derived from a primary tumor. […] PC3 (a metastatic tumor, referred to as Tmet) is undifferentiated, AR^−, PSA^−, and metastasizes to lymph node (LN), lung, and bone. Multiplexed sensors were selected to classify Tmet from Tnon-met (FIGS. 7A-7F). A substrate cleavage assay was performed (FIG. 12A) with several protease nanosensors (FIGS. 9A-9B and FIGS. 12A-12B). […] It was observed that multiplexed nanosensors classify Tmet from Tnon-met and outperform serum PSA measurements (FIG. 13) and that protease activity can classify Tmet versus Tnon-met cell lines. Multiplexing typically increases predictive power.

## SB14: protease nanosensor, MMP13 substrate, SEQ ID NO: 10 (EGVNDNEEGFFSARKGGLGPKGQTGGC)
  substrate specificity of nanosensor: MMP13 substrate
